Values joined by “and” are separate entries in the source; they are usually repeats but may differ in a detail not shown here. Identical values can stand only once.

Amino acid sequences for entries named in this document (tags omitted). A change or cut given only in a name is not applied to a line headed by its entry.
UniProt Q2FYG6: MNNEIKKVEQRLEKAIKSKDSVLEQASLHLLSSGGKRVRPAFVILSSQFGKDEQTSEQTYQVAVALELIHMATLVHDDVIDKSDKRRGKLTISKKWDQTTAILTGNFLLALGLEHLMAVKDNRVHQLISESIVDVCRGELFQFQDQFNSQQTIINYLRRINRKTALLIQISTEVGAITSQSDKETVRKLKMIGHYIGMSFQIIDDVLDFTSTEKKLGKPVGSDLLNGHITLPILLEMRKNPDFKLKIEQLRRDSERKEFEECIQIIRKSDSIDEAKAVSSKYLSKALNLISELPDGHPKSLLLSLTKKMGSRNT

Assay [1] addresses SaHepPPS (S. aureus heptaprenyl diphosphate synthase) (Staphylococcus aureus, UniProt Q2FYG6). The assay can be described thus: HepPPS enzyme inhibition assay. The class given is biochemical. Conditions: IC50 against SaHepPPS.
The subject of a further assay is human GGPPS. The following applies: read-out: IC50 human GGPPS; cited from earlier work.

The IC50 is the midpoint of a concentration-inhibition curve. On to `CC(C)CCCC(C)CCOc1ccc[n+](CC(P(=O)([O-])O)P(=O)(O)O)c1` (centres unmarked) [Compound 74, Hydrogen(2-(3-((3,7-dimethyloctyl)oxy)pyridin-1-ium-1-yl)-1-phosphonoethyl) phosphonate], for which the half-inhibitory concentration (IC50) in assay [1] is 100 nM and ~100 nM and 10 to 100 nM.
Take `O=P(O)(O)C(O)(Cn1ccnc1)P(=O)(O)O` [Compound 24, zoledronate]: in the assay with human GGPPS, the IC50 is approximately 100000 nM.

The record behind these values is PMC6427912 (Journal of medicinal chemistry, 2019).
